Key:
[1] = Inhibitory activity against endothelial nitric oxide synthase (eNOS)
[2] = Inhibitory activity against neuronal nitric oxide synthase

Compound	Ki [1]	Ki [2]
[H]/N=C(/NCCC[C@H](N)C(=O)N[C@H]1CNC(C(N)=O)C1)N[N+](=O)[O-] (some centres not stated)	128 µM	–
N=C(NCCC[C@H](N)C(=O)N[C@@H]1CN[C@@H](C(N)=O)C1)N[N+](=O)[O-]	–	1.1 µM
